Test results reported in patent publication US10117912B2 (priority 2013, dated 2018).

Amino acid sequences for entries named in this document (tags omitted). A change or cut given only in a name is not applied to a line headed by its entry. Residues count along the entry.
UniProt P15144: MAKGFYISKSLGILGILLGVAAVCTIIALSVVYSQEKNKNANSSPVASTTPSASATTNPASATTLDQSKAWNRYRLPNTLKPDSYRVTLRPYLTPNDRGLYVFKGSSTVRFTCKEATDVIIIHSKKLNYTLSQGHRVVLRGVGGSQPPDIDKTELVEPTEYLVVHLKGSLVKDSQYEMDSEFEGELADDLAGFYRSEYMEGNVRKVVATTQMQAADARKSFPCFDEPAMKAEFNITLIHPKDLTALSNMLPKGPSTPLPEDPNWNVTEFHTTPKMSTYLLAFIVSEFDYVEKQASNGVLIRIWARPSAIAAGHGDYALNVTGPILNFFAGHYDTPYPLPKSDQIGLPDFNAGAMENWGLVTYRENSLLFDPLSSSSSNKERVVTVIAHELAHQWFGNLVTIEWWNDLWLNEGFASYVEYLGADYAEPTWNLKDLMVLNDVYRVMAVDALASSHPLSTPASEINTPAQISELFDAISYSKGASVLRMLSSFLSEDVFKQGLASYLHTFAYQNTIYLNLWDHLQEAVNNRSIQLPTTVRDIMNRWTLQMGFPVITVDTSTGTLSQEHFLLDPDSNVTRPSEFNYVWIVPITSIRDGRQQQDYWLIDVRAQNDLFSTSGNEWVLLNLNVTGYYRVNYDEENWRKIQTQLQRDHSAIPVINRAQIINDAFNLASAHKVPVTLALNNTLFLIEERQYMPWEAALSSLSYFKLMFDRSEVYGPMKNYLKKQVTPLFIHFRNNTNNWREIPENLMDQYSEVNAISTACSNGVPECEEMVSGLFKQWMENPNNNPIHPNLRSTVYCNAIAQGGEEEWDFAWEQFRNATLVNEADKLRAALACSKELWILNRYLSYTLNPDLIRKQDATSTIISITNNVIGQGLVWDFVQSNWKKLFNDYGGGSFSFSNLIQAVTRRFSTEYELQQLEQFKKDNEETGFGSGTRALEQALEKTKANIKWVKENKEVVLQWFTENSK
UniProt P06276, 29-602 limits assumed: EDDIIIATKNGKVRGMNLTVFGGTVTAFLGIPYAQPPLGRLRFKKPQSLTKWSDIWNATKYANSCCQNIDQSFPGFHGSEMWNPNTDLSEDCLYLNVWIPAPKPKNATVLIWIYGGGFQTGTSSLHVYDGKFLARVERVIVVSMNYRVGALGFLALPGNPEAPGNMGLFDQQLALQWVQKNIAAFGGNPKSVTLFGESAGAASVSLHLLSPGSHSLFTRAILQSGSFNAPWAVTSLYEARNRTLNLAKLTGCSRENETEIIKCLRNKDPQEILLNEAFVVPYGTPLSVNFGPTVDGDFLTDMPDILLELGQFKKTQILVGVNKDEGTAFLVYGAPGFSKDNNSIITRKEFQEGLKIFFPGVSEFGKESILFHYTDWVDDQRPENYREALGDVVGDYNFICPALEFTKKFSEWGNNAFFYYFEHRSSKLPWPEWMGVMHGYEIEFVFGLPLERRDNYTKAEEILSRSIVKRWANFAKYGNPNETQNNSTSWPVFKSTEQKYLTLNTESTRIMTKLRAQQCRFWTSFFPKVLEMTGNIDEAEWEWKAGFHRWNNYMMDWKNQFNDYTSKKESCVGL
UniProt Q9NY33: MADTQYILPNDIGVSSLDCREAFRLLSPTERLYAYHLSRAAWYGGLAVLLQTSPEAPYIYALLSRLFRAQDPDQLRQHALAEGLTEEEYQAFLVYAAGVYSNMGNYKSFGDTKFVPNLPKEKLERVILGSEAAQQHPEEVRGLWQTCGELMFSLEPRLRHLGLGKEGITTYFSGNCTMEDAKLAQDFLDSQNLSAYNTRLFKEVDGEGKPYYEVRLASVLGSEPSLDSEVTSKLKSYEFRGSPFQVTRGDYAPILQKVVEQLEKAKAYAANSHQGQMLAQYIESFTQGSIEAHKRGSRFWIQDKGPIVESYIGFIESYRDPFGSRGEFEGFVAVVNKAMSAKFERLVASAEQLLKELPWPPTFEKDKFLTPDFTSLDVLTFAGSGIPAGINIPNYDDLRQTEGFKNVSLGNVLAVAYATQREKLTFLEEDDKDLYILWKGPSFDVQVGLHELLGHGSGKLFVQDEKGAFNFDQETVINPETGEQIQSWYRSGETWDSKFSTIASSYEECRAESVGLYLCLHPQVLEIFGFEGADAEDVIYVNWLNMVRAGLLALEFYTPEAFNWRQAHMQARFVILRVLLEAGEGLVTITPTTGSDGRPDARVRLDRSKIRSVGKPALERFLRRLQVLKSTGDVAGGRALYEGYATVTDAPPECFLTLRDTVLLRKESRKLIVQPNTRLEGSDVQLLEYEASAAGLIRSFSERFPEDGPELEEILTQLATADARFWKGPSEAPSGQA

How the values were obtained:
aminopeptidase N = aminopeptidase N (Homo sapiens, UniProt P15144); experiment: Avizafone converting enzyme screening, aminopeptidase N; conditions: avizafone with enzyme 0.25-2 U/mL, 10 min, 32° C., pH 7.4
butyrylcholinesterase = butyrylcholinesterase (Homo sapiens, UniProt P06276); experiment: Avizafone converting enzyme screening, butyrylcholinesterase; conditions: avizafone with enzyme 0.25-2 U/mL, 10 min, 32° C., pH 7.4
dipeptidyl peptidase III = dipeptidyl peptidase III (Homo sapiens, UniProt Q9NY33); experiment: Avizafone converting enzyme screening, dipeptidyl peptidase III; conditions: avizafone with enzyme 0.25-2 U/mL, 10 min, 32° C., pH 7.4
[1] = test system: Aspergillus oryzae protease; experiment: Avizafone converting enzyme screening and kinetics, Aspergillus oryzae protease
[2] = test system: Proteinase from Aspergillus melleus (protease EC number 232-642-4); experiment: Conversion of avizafone with Aspergillus melleus protease (UV absorbance 240 nm); conditions: 129.9 uM avizafone, enzyme 0.25-2 U/mL, 32 degree C., 30 min

Compound | amount of prodrug accumulated in the basal side (MDCKII-wt monolayer; avizafone at 116 μM, S=0.9, no enzyme, after 2 h) | conversion of prodrug to parent drug on the apical side (MDCKII-wt monolayer; avizafone at S=5.6, cenz=4 U/mL protease, after 2 h) | prodrug in apical solutions (MDCKII-wt monolayer; avizafone without enzyme, after 2 h) | prodrug permeated into the basal side (MDCKII-wt monolayer; avizafone without enzyme, over 2 h) | prodrug concentration at which avizafone flux saturated (MDCKII-wt monolayer; without enzyme) | effect on TEER (monolayer integrity) (MDCKII-wt monolayers; 2 h treatment, pH 7.4, 32° C., enzyme 4 U/mL) | TEER value (MDCKII-wt monolayers; prodrug-enzyme mixtures prepared at S=10.2, protease 4 U/mL, 2 h) | change in absorbance at 240 nm (prodrug conversion) (aminopeptidase N) | change in absorbance at 240 nm (prodrug conversion) (butyrylcholinesterase) | change in absorbance at 240 nm (prodrug conversion) (dipeptidyl peptidase III) | Vmax (Michaelis-Menten) ([1]; 0.25 U/ml protease, avizafone 69-3601 μM, conversion rate at 5 min, pH 7.4, 32° C.) | change in absorbance at 240 nm (prodrug conversion) ([1]; avizafone with enzyme 0.25-2 U/mL, after 10 min, 32° C., pH 7.4) | kcat ([1]; cenz=108 μM (4 U/mL)) | conversion of avizafone (UV absorbance at 240 nm) [2] | Km ([1]; read-out: Km (Michaelis-Menten), 0.25 U/ml protease, avizafone 69-3601 μM, conversion rate at 5 min, pH 7.4, 32° C., ± s.e.m)
CN(C(=O)CNC(=O)[C@@H](N)CCCCN)c1ccc(Cl)cc1C(=O)c1ccccc1.Cl.Cl | negligible amount | 80% | 80% | ≤ 10% | ≥ 1130 µM | unaffected | > 60 Ω/cm^2 | no change in absorbance | no change in absorbance | no change in absorbance | 1369 ± 94 µM/s | increase in absorbance | 12.7 s⁻¹ | conversion of Avizafone in a dose dependent manner | –
CN(C(=O)CNC(=O)[C@@H](N)CCCCN)c1ccc(Cl)cc1C(=O)c1ccccc1 | – | – | – | – | – | – | – | – | – | – | – | – | – | – | 1500 µM
